{"source": "patent US20220054649A1", "about": "“ANTIBODY-DRUG CONJUGATES” (SPIREA LIMITED, priority 2018, published 2022)", "tested_on": "SKBR3 cells", "experiment": "Cell viability assay (CellTitre Glo luminescence) on SKBR3 cells", "format": "cell-based", "conditions": "SKBR3 breast cancer cell line; 72 h; concentration given as pM of protein; read-out: estimated protein concentration IC50", "procedure": "MMAE polyamide Trastuzumab ADC was tested for activity against SKBR3 cells (breast cancer cell line) (see FIG. 13). The sample was added to cells for 72 h before application of the CellTitre Glo luminescence reagent. Concentration is given as pM of protein.", "data": [{"substance": "MMAE polyamide Trastuzumab ADC", "values": [{"measurement": "IC50", "result": 158, "unit": "pM"}]}]}
